Test results from US20140099354A1, “BIOPASSIVATING MEMBRANE STABILIZATION BY MEANS OF NITROCARBOXYLIC ACID-CONTAINING PHOSPHOLIPIDS IN PREPARATIONS AND COATINGS” (priority 2011, published 2014).

System: Murine macrophages (RAW 264.7)

Substance	viability of adhering macrophages
1-Palmitoyl-2-(10-hydroxy-9-nitro-α-linolenoyl)-sn-3-glycerophosphocholine and 1-palmitoyl-2-(9-hydroxy-10-nitro-α-linolenoyl)-sn-3-glycerophosphocholine [Example O6]	95-98%
1-erucinyl-2-(9-nitrogadoleoyl)-sn-3-glycerophosphocholine and 1-erucinyl-2-(10-nitrogadoleoyl)-sn-3-glycerophosphocholine [Example P3]	95-98%
